Assay results published in patent US9632092B2, “Reagent for diagnosing tumor, pharmaceutical composition, and screening method” (Tokyo Metropolitan Institute of Medical Science, priority 2012, dated 2017).

The chains behind the UniProt entries cited, without tags or fusion partners. Where a name states a change or a piece, a line headed by the entry shows the natural chain unless it says otherwise. Residues count along the entry.
UniProt Q9Z2X8, 321-609: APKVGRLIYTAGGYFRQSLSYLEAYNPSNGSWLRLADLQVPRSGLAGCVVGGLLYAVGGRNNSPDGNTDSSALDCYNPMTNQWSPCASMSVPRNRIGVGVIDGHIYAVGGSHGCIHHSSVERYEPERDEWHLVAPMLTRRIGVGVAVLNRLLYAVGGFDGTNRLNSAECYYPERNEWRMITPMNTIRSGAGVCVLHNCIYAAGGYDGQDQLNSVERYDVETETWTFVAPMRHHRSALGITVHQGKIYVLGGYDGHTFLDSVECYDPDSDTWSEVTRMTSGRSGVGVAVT

Molecular target: mouse Keap1-DC (aa321-609, SEQ ID No. 24) (Mus musculus, UniProt Q9Z2X8)
Test: isothermal titration calorimetry, binding to Keap1-DC
Settings: 25° C.
Procedure: Binding isotherms were obtained using isothermal titration calorimetry, for the interaction of mouse Keap1-DC (aa321-609, SEQ ID No. 24) with KIR in mouse non-phosphorylated p62 (SEQ ID No. 21), KIR in mouse phosphorylated p62 (SEQ ID No. 21), or an ETGE motif of mouse Nrf2 (SEQ ID No. 26) (FIG. 2).
First, isothermal titration calorimetry was performed using MicroCal iTC200 System (GE Healthcare) at 25° C. 2.5 μl of 0.1 mM solution of non-phosphorylated KIR (^348[…]^356, SEQ ID No. 21) was injected from a rotating syringe (1000 rpm) into 200 μl of 0.1 mM solution of Keap1-DC sixteen times at an interval of 3 minutes. 1.3 μl of 0.6 mM phosphorylated KIR (^348VDP(pS)TGELQ^356) solution was injected from a rotating syringe (1000 rpm) into 200 μl of 0.06 mM Keap1-DC solution thirty times at an interval of 2 minutes. 1 μl of 0.4 mM solution of Nrf2-ETGE motif (^76[…]^84, SEQ ID No. 26) were injected from a rotating syringe (1000 rpm) into 200 μl of 0.04 mM of Keap1-DC (SEQ ID No. 24) forty times at an interval of 2 minutes. The binding data were analyzed using Origin 7 software (GE healthcare).

Nrf2-ETGE: ETGE motif peptide of mouse Nrf2, 76LDEETGEFL84, SEQ ID No. 26 [reference compound]
Binding constant (Ka) to Keap1-DC: (6.83±2.16)×10^6 M^−1
